Each structure is given as a SMILES string.

The chains behind the UniProt entries cited, without tags or fusion partners.
UniProt P34969, whole entry: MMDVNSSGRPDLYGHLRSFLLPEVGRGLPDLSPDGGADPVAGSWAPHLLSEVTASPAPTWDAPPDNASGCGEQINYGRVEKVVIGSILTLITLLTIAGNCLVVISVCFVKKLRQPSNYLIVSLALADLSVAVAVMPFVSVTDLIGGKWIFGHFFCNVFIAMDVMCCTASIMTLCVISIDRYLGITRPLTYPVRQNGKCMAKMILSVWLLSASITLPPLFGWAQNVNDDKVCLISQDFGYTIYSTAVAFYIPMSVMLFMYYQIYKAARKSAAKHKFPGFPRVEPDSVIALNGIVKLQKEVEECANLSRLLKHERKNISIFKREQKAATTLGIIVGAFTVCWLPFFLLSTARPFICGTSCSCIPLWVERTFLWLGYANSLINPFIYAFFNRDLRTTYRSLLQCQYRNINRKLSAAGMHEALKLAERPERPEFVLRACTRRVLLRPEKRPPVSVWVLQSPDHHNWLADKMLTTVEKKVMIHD

The target of the test is 5-hydroxytryptamine receptor 7 (Homo sapiens, UniProt P34969). The test can be described thus: Displacement of [3H]-8-OH-DPAT from human 5-HT7 receptor expressed in CHOK1 cells after 30 mins by liquid scintillation counting analysis. It counts as cell-based, CHO-K1.

For `CCCN(CCC)C1CCc2cccc(O)c2C1` (stereo unspecified) [8-OH-DPAT], the Ki was determined as 388 nM.

The record behind these values is ChEMBL document CHEMBL3400047, “Synthesis and binding properties of new long-chain 4-substituted piperazine derivatives as 5-HT₁A and 5-HT₇ receptor ligands” (Bioorg Med Chem Lett, 2015).
